Results: patent US20260382588A1, “COMPOUNDS CONTAINING A HYDROXYPHENYL MOIETY AND THEIR USE” (published 2026)

The chains behind the UniProt entries cited, without tags or fusion partners. Residues count along the entry.
UniProt O75460, 465-977 limits assumed: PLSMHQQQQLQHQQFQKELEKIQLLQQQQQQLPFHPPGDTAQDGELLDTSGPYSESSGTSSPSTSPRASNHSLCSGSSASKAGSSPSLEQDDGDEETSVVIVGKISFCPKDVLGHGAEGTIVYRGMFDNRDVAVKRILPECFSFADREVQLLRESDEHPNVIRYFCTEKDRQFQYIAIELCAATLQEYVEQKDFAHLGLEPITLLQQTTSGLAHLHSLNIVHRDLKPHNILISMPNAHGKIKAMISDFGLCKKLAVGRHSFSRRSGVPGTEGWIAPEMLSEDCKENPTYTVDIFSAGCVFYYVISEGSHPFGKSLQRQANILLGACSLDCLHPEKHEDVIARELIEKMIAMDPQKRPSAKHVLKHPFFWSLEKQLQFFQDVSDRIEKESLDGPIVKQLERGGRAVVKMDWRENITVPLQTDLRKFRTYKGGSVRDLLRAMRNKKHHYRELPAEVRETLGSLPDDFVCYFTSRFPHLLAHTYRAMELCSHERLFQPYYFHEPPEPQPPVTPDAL

Experiments:
IRE1 = IRE1 (Homo sapiens, UniProt O75460); test: MicroScale Thermophoresis (MST) direct binding to recombinant IRE1; conditions: recombinant IRE1, MST, one-site saturation binding; data not shown
Description: Materials—IRE1 wild-type recombinant protein encoding the cytoplasmic domain (amino acids 465-977) with N-terminal polyhistidine-tag and GST tag was from Sinobiological (Sino Biological Europe GmbH, Eschborn, Germany, #11905-H20B). The fluorescent probe used for the in vitro IRE1 RNase assay was from Eurogentec. Tunicamycin was purchased from Calbiochem (Merck KGaA, Darmstadt, Germany). All the inhibitors were synthesized by and purchased from Enamine (Riga, Latvia).
MicroScale Thermophoresis13 The direct binding of compound 33 (Z4) and compound 28 (Z4P) to IRE1 protein was measured using MicroScale Thermophoresis (MST). IRE recombinant protein was labelled using RED-Tris-NTA fluorescent dye (RED-Tris-NTA 2nd Generation, NanoTemper, Munich, Germany; #MO-L018). For the labelling step, 100 μL of 20 nM protein solution is mixed with 100 μL of 10 nM RED-Tris-NTA dye in PBST buffer (PBS with 0.05% Tween-20) and incubated for 30 min at RT. The protein—dye mixture was centrifuged for 10 min at 4C and 15 000×g. For measurement of direct binding, the compounds were analyzed in a 16-point dilution series mixed in a 1:1 ratio with the labelled protein in PBST buffer. The assay was performed in standard Monolith NT.115
Capillaries (NanoTemper; #MO-K022), and all measurements were performed at 60% MST power and 60% excitation power using the Monolith NT. 115 Pico machine (NanoTemper). The dissociation constant (Kd) was calculated by taking the average of triplicate normalized fluorescence data using NANOTEMPER analysis software (MO.Affinity Analysis v2.3). The normalized values were converted to fraction-bound data, and the resulting binding curves are plotted using GRAPHPAD PRISM software (GraphPad Software).
To monitor the interaction between IRE1 and the compounds, micro-scale thermophoresis (MST) was used with recombinant IRE1 and increasing concentrations of compound 33 (Z4) and compound 28 (Z4P) (racemic mixtures) and the pure compound 28 (Z4P) enantiomers. […] To this end, the racemic compound was synthesized and the enantiomers separated by chiral chromatography. […] Additionally, compounds 28 (Z4P), 33 (Z4), 34 (Z4A), 35 (Z4B), 36 (Z4C), 37 (Z4D) and 38 (Z4E) were tested for inhibitory activity using a fluorescence resonance energy transfer (FRET)—quenched IRE1 RNA substrate probe and yielded IC50s in the low micromolar range (FIG. 1).

Sparc mRNA = test: RIDD: Sparc mRNA decay in U87 cells; conditions: for effect on Sparc mRNA in cells overexpressing dominant negative IRE1: DN IRE1 cells, data not shown; for tunicamycin-induced degradation of Sparc mRNA: U87 cells, actinomycin D and tunicamycin, 4 hours (FIG. 2C)
Experimental: FIG. 2: Compound 33 (Z4) and compound 28 (Z4P) inhibit IRE1 activity in cellular models. (A) Protein levels of IRE1 and phospho-IRE1 in U87 cells treated with compound 33 (Z4) and compound 28 (Z4P) over 24 hours. Fold change of protein expression between IRE1 and phospho-IRE1 is represented in bar chart form normalized to untreated U87 cells. (B) Quantification of XBP1s mRNA levels upon treatment with 1 μg/mL Tunicamycin over 24 hrs in the presence or absence of pre-treatments with 25 μM compound 33 (Z4) or compound 28 (Z4P) normalized to untreated U87 cells. (C) Quantification of SPARC mRNA levels in the presence of 5 μg/mL Actinomycin D and presence or absence of 10 μg/mL Tunicamycin and 9 μg/mL compound 33 (Z4) or compound 28 (Z4P) over 4 hours in U87 cells. (D) Cell viability of U87 cells as function of TMZ concentration, in the presence of increasing concentrations of compound 33 (Z4) and compound 28 (Z4P). The non-linear regression was calculated using the GraphPad Prism software. Symbols and error bars represent mean values±SD.
Cell culture and treatments—U87MG (U87; ATCC) cells were authenticated as recommended by AACR (http://aacrjoumals.org/content/cell-line-authentication-information) and regularly tested for the absence of mycoplasma using MycoAlert® (Lonza, Basel, Switzerland) or MycoFluor (Invitrogen, Carlsbad, CA, USA). U87 were grown in DMEM Glutamax (Invitrogen, Carlsbad, CA, USA) supplemented with 10% FBS. GB immortalized U251 and primary RADH87 (T. Avril et al., Brain Pathol., 2012, 22, 159-174) cells were grown in DMEM supplemented with 10% FBS in a 5% C02 humidified atmosphere at 37 °C. GB cell lines were modified for IRE1 activity by overexpressing dominant negative (DN) forms of IRE1 that lack the RNase domain (IRE1.NCK or IRE1 Q780stop) as previously described (S. Lhomond et al., EMBO Molecular Medicine, 2018, 10, e7929; J. Obacz et al., bioRxiv, 2020, 533018). For XBP1s induction experiments, tunicamycin was used at 1 μg/mL for the indicated periods of time. For inhibitor cell toxicity assays cells were plated in 96 well plates at 5000 cells per well and treated with 0, 5, 10, 25, 50, 100, 250, 500, 1000 and 2500 μM concentrations of each inhibitor. After 6 days of incubation, WST1 reagent (Roche) was added to each well and post 2-hour incubation the plate was read using a Tecan 200 colorimeter. […] After 6 days of incubation, WST1 reagent (Roche) was added to each well and post 2-hour incubation the plate was read using a Tecan 200 colorimeter.
Quantitative real-time PCR—Total RNA was prepared using TRIzol reagent (Invitrogen, Carlsbad, CA, USA). […] Each sample was extract individually for RNA and performed the quantification of mRNA levels by qPCR for several targets. […]

Structure (SMILES) | Kd (IRE1) | effect on Sparc mRNA in cells overexpressing dominant negative IRE1 (Sparc mRNA) | tunicamycin-induced degradation of Sparc mRNA (Sparc mRNA)
Cc1ccc(C)c(NC(=O)NC(C)CCc2ccc(O)cc2)c1 (racemic) | 120 µM | no effect on Sparc mRNA | blocked tunicamycin-induced degradation of Sparc mRNA
Cc1ccc(C(N)=O)cc1NC(=O)NC(C)CCc1ccc(O)cc1 (racemic) | 20 µM | no effect on Sparc mRNA | blocked tunicamycin-induced degradation of Sparc mRNA
